{"source": "paper PMC4192597", "about": "“Antimicrobials, Stress and Mutagenesis” (PLoS Pathogens, 2014)", "tested_on": "E. coli MG1655", "details": "micro-dilution, inoculum 2×10^8 cfu/ml, 24 h, liquid MH medium, 37°C", "protocol": "E. coli K-12 MG1655 was used for all experiments, grown in liquid Mueller-Hilton (MH) agar or agarose, unless otherwise indicated. All experiments were carried out at 37°C.\nMICs were determined according to CLSI recommendations by a micro-dilution method with the exception that the inoculum size that was adjusted to 2×10^8 cfu/ml from a regrowth of overnight cultures to be consistent with the mutagenesis experiments. […] Polypropylene non-binding plates (Th. Geyer, Germany) were used for all experiments."}
{"smiles": "CC[C@H](C)[C@H](NC(=O)CN)C(=O)NCC(=O)N[C@@H](C)C(=O)N[C@H](C(=O)N[C@@H](CC(C)C)C(=O)N[C@@H](CCCCN)C(=O)N[C@H](C(=O)N[C@@H](CC(C)C)C(=O)N[C@H](C(=O)N[C@H](C(=O)NCC(=O)N[C@@H](CC(C)C)C(=O)N1CCC[C@H]1C(=O)N[C@@H](C)C(=O)N[C@@H](CC(C)C)C(=O)N[C@H](C(=O)N[C@@H](CO)C(=O)N[C@@H](Cc1c[nH]c2ccccc12)C(=O)N[C@H](C(=O)N[C@@H](CCCCN)C(=O)N[C@@H](CCCNC(=N)N)C(=O)N[C@@H](CCCCN)C(=O)N[C@@H](CCCNC(=N)N)C(=O)N[C@@H](CCC(N)=O)C(=O)N[C@@H](CCC(N)=O)C(N)=O)[C@@H](C)CC)[C@@H](C)CC)[C@@H](C)O)[C@@H](C)O)C(C)C)C(C)C", "note": "[Melittin]", "values": [{"measurement": "MIC", "value": 2, "unit": "µg/mL"}]}
